scFv variants of Ab-14 (light chain) against a SARS-CoV-2 spike peptide

Target: peptide PDVDLGDISGINAS, taken from heptad repeat 2 (HR2) of SARS-CoV-2 spike.

Ab-14 is the parent antibody, in scFv form: VH, then a 15-residue (Gly4Ser)3 linker, then VL. The heavy chain is unchanged in all variants.
VH: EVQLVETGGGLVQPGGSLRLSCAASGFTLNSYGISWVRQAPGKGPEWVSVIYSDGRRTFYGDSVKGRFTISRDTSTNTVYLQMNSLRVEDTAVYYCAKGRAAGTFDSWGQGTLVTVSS
VL: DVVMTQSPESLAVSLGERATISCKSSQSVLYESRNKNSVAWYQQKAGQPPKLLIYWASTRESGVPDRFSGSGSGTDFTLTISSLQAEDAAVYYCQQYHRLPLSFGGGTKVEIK

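Designed CDR sequences, proposed from the first random library and measured here. Several design methods are mixed in this list. The assay is AlphaSeq: two haploid yeast populations carry antibody and antigen on their surface. Mating (16 h, 30 °C) was followed by selection of diploids and sequencing of their barcodes. Read counts were normalised to the haploid input and turned into Kd by a linear fit to BCL2-family pairs of known affinity, for each replicate. Mating was done six times.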

Variants are written as CDR1, CDR2 and CDR3 of the light chain (limits as in the source). Parent: KSSQSVLYESRNKNSVA, WASTRES, QQYHRLPLS.
This list holds designs with more than six substitutions.
Scale: log10 of Kd in nM, estimated from mating counts; low values are strong binders.
The mean shown is taken over the replicates in which the pair was detected.
"nd" means that the variant was in the library but no mating with the target was seen in that replicate; the authors take this as a sign of poor binding, and no number exists.

Variant SITQLVAYGSRNKNSVA | QMSTREE | QQYDRLPLS gave 0.38, 0.25, 0.27, 0.20, 0.29, 0.65 (mean 0.34; controls 1 of 18).
Variant RLTEHTSERAYADASVA | NASTRND | QQYHRLPLE gave 1.31, 0.70, 1.37, 0.63, 0.87, 1.14 (mean 1.00; controls 0 of 18).
Variant MISEVMETLTRHGNNVA | DLAERED | QQYFRLPLS gave 1.44, 1.78, 1.19, 0.75, 1.27, 1.26 (mean 1.28; controls 0 of 18).
Variant SIDSAVAYGLQNKKNIA | EEERVDR | QQYAHLPLM gave nd, nd, nd, nd, nd, nd (controls 0 of 18).
Variant RVRLNEGEIDMHWYNIA | SVSIRAD | QQYSRLPLF gave 0.78, 0.92, 1.00, 0.92, 0.65, 0.74 (mean 0.83; controls 1 of 18).
Variant KIQQSVLYEDRVKNSVA | NASDRMS | QQYHRLPLS gave 0.50, 0.43, 0.25, 0.18, 0.33, 0.65 (mean 0.39; controls 4 of 18).
Variant KVDQEVGGLSRNANAVA | AASTRES | QQYHRLPLS gave -0.02, 0.12, -0.35, -0.32, -0.31, -0.25 (mean -0.19; controls 0 of 18).
Variant KLQSVTGYESYVRNSVA | QMSTRAE | QDYNRLPLS gave 0.74, 0.31, 0.83, 0.57, 0.37, 0.50 (mean 0.55; controls 1 of 18).
Variant KLQMSVMMESRWCNSVA | SASTREE | QQYHRLPLS gave 1.06, 1.20, 1.10, 0.67, 0.71, 1.06 (mean 0.96; controls 2 of 18).
Variant KVSTSELEESRNKGSVA | WASKREE | QQYHRLPLS gave 0.39, 0.56, 0.53, 0.67, 0.00, 0.81 (mean 0.49; controls 0 of 18).
Variant KVHQSQLYESRNINSVA | NASQRCS | QQYHRLPLS gave 0.23, 0.16, 0.12, 0.11, 0.25, 0.35 (mean 0.20; controls 3 of 18).
Variant MISQLMNMGQFAINSVA | QAEIRND | QQYDRLPLA gave 3.62, nd, nd, 0.92, nd, nd (mean 2.27; controls 0 of 18).
Variant MLGDVAHGLSRKENSVA | DNDQRNS | QQYDRLPLS gave 1.92, 1.73, 1.40, 1.87, 1.63, 2.07 (mean 1.77; controls 2 of 18).
Variant HIQGYFTMPENANNNIA | EKHYRVR | QQYYRLPLA gave nd, 2.78, 2.23, nd, nd, nd (mean 2.51; controls 0 of 18).
Variant NISESMYFQSRNTNNIA | EMSTRER | QHYHRLPLS gave 0.72, 0.70, 0.30, 0.53, 0.49, 0.62 (mean 0.56; controls 1 of 18).
Variant ILEENSDDITEQGNSIA | ETNMVYS | QQYHRLPLA gave 1.07, 2.04, 1.45, 1.45, 2.06, 2.48 (mean 1.76; controls 2 of 18).
Variant MVTQMAMSGMTNKRSVA | NAETRED | QQYHHLPLI gave 0.64, 0.34, 0.17, 0.28, 0.47, 0.51 (mean 0.40; controls 2 of 18).
Variant MISQMFEGLSHSKNPVA | QVSTREE | QQYHRLPLS gave nd, 1.46, 1.77, nd, 1.81, 2.07 (mean 1.78; controls 0 of 18).
Variant KLQMRMLYESRMKNSVA | NASLRES | QQYHRLPLS gave 0.50, 0.43, 0.38, 0.31, 0.18, 0.27 (mean 0.35; controls 3 of 18).
Variant KISQSINFMSGNKNAIA | QMEMREE | QQYHRLPLS gave 1.80, 0.66, 1.03, 0.22, 0.32, 0.63 (mean 0.78; controls 0 of 18).
Variant HMSQVTMYGYWHKNSVA | QTSTREE | QQYDRLPLS gave nd, 1.84, 0.92, 1.33, 0.91, 1.34 (mean 1.27; controls 1 of 18).
Variant KLGDMVHTMSRNKNSIA | DMRTRES | QQYYRLPLS gave 0.23, 0.45, -0.09, -0.46, -0.11, 0.06 (mean 0.01; controls 0 of 18).
Variant MLSQMWALGAKVKNSVA | QASMRFN | QQYDRLPLI gave nd, nd, nd, 2.44, 1.78, 1.73 (mean 1.98; controls 1 of 18).
Variant KLQSLELYESRNKNNVA | SASTRYS | QQYHRLPLS gave 1.26, 1.13, 0.21, 0.83, 0.12, 0.64 (mean 0.70; controls 1 of 18).
Variant KLSATYRYESQNKNSIA | EMSTRES | QCYHRLPLS gave 1.59, 1.43, 0.48, 0.36, 1.93, 1.63 (mean 1.24; controls 0 of 18).
Variant KLPQSDLYEGRNSNSVA | HASTRFS | QQYHRLPLS gave 0.16, -0.01, -0.11, -0.15, -0.05, 0.05 (mean -0.02; controls 0 of 18).
Variant KLQQSQLYESRWQNSVA | QASQREV | QQYHRLPLS gave 0.32, -0.09, -0.18, -0.47, -0.35, -0.38 (mean -0.19; controls 0 of 18).
Variant HISMMVGTKGYNKNSVA | NAEERED | QQYHRLPLS gave -0.12, 0.00, -0.20, 0.00, 0.22, -0.01 (mean -0.02; controls 0 of 18).
Variant KLGDSTRFESSNKASIA | DNSTRES | QQYHRLPLS gave 0.74, 0.85, 1.41, 1.00, 1.07, 0.99 (mean 1.01; controls 2 of 18).
Variant KLMPSHLYESRNKNSVA | NASYREQ | QQYHRLPLS gave 0.57, 0.52, 0.64, 0.43, 0.47, 0.45 (mean 0.51; controls 1 of 18).
Variant SLMHLSFVHDREWNNVA | DLNVKAS | QQYDRLPLV gave 1.35, 1.03, 1.00, 1.10, 0.94, 1.03 (mean 1.08; controls 1 of 18).
Variant KISMSYRYESQEKNSIA | EMSTREE | QSYHRLPLS gave 1.39, 1.42, 1.27, 1.06, 1.11, 1.19 (mean 1.24; controls 1 of 18).
Variant KLSMSVMMEQRNKNSVA | SANTRME | QQYHRLPLS gave 0.02, -0.22, -0.14, -0.22, -0.12, 0.09 (mean -0.10; controls 0 of 18).
Variant TIGQMFNGESRNRNSVA | QASTREY | QSYDRLPLS gave 0.97, 0.74, 0.85, 0.54, 0.45, 0.57 (mean 0.69; controls 2 of 18).
Variant RLWAYTQGFFRNMQNIA | DISYRVT | QQYGRLPLS gave nd, nd, nd, nd, nd, nd (controls 0 of 18).
Variant RMNKFMSPITEAKNSVA | GAEHLAQ | QSYHRLPLS gave 0.40, 0.53, 0.53, 0.08, 0.25, 0.38 (mean 0.36; controls 0 of 18).
Variant KMTEQLLNGEREPSNIA | AQNIGSD | QQYHHLPLI gave nd, 1.68, nd, 2.58, nd, nd (mean 2.13; controls 0 of 18).

The opening 5 entries, copied out:

CDR-L1	CDR-L2	CDR-L3	log10 Kd (nM) by replicate	log10 Kd (nM), mean	control signals
SITQLVAYGSRNKNSVA	QMSTREE	QQYDRLPLS	0.38, 0.25, 0.27, 0.20, 0.29, 0.65	0.34	1/18
RLTEHTSERAYADASVA	NASTRND	QQYHRLPLE	1.31, 0.70, 1.37, 0.63, 0.87, 1.14	1.00	0/18
MISEVMETLTRHGNNVA	DLAERED	QQYFRLPLS	1.44, 1.78, 1.19, 0.75, 1.27, 1.26	1.28	0/18
SIDSAVAYGLQNKKNIA	EEERVDR	QQYAHLPLM	nd, nd, nd, nd, nd, nd	nd	0/18
RVRLNEGEIDMHWYNIA	SVSIRAD	QQYSRLPLF	0.78, 0.92, 1.00, 0.92, 0.65, 0.74	0.83	1/18

The range of this assay differs from that of the first round, and the authors advise against merging the two.
In the paper, a design with two or fewer of six values counts as a poor binder.
Nonspecific signal, from three strains lacking the peptide, appeared in 4% of pairings of all light chain designs, centred on 2.64 (5% of these signals below 1.59); values are not corrected for it. Also given: how often the same scFv was detected with the empty control strains.

From the AlphaSeq antibody data of Li et al. 2023 (doi:10.1038/s41467-023-39022-2), copy in the FLAb collection.